The data set deals with the molecule itself. In words: SDS-PAGE stability assay; 1 ug protein in loading buffer with 1% SDS heated at 95 °C for 0 to 300 s, 10% SDS-PAGE, hexamer and monomer bands quantified; hexamer to monomers.

B1: EcHfq72 (domain or fragment, Escherichia coli, UniProt P0A6X3 1-72, looked up)
chain: MAKGQSLQDPFLNALRRERVPVSIYLVNGIKLQGQIESFDQFVILLKNTVSQMVYKHAISTVVPSRPVSHHS
notes: Hfq, Escherichia coli, N-terminal domain; stop codon inserted after the 72nd codon of Hfq in pET28[EcHfq]; also called EcHfq NTD; NTD alone of EcHfq; source: E. coli BL21(DE3), pET28[EcHfq72], purified (HisTrap, thrombin, Mono S, Superdex 200)
As to B1, the “half-life of hexamer in 1% SDS at 95 °C” value came to 41.5 ± 2.4 s.

(Values after PMC3477312, “Characterization of Vibrio cholerae Hfq Provides Novel Insights into the Role of the Hfq C-Terminal Region” (Journal of Molecular Biology, 2012).)
